Test results reported in patent US20160325113A1, “Phototherapy Devices and Methods Comprising Optionally Substituted Quinquiesphenyl Compounds” (NITTO DENKO CORPORATION, priority 2012, published 2016).

System: CHO-K1 (Chinese Hamster Ovarian Cancer, ATCC, CRL-2243) cell line
Assay: Ex-vivo efficacy study: ALA photodynamic treatment with OLED red light, MTT cell viability

## NCC(=O)CCC(=O)O [ALA, 5-aminolevulinic acid]
ALA fixed at 1 mM, light output 10 mW/cm^2, light dose above about 30 J/cm^2 (30 to 60 J/cm^2)
  cells destroyed (MTT, FIG. 13): ~90%
Reference-2: 1 mM ALA, exposed to outdoor light, no OLED irradiation
  cell viability of reference sample (FIG. 13): remained alive
